Reference: patent US9199949B2, “Selective glycosidase inhibitors and uses thereof” (Alectos Therapeutics Inc., priority 2011, dated 2015)

Protein sequences, listed by entry. Tags and fused reporters are not part of them. Lines headed by an entry give the natural chain unless they say otherwise; changes in a name come on top.
UniProt O60502: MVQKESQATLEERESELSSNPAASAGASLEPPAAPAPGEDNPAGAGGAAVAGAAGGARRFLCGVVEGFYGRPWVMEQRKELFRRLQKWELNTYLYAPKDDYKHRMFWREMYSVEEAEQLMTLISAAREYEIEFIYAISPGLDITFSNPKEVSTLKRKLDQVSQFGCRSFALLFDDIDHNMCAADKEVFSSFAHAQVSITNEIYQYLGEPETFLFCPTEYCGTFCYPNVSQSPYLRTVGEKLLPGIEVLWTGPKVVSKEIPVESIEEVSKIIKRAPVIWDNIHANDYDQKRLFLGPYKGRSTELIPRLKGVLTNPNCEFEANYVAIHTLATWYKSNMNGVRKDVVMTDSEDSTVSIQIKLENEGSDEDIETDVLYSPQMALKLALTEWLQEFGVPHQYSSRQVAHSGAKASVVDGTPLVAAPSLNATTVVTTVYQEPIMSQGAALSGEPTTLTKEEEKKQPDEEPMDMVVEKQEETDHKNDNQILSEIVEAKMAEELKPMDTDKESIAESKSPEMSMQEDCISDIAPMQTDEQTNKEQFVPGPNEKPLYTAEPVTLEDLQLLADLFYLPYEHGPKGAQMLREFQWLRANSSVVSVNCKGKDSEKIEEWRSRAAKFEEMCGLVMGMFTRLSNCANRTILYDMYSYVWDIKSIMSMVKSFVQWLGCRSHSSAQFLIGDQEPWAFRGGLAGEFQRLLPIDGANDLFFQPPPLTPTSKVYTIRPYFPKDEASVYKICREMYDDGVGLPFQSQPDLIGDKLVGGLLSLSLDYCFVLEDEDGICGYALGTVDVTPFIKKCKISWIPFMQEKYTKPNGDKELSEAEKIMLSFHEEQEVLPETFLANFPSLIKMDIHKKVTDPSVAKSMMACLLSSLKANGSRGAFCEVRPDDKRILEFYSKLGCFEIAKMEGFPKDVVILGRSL
UniProt Q8VIJ5: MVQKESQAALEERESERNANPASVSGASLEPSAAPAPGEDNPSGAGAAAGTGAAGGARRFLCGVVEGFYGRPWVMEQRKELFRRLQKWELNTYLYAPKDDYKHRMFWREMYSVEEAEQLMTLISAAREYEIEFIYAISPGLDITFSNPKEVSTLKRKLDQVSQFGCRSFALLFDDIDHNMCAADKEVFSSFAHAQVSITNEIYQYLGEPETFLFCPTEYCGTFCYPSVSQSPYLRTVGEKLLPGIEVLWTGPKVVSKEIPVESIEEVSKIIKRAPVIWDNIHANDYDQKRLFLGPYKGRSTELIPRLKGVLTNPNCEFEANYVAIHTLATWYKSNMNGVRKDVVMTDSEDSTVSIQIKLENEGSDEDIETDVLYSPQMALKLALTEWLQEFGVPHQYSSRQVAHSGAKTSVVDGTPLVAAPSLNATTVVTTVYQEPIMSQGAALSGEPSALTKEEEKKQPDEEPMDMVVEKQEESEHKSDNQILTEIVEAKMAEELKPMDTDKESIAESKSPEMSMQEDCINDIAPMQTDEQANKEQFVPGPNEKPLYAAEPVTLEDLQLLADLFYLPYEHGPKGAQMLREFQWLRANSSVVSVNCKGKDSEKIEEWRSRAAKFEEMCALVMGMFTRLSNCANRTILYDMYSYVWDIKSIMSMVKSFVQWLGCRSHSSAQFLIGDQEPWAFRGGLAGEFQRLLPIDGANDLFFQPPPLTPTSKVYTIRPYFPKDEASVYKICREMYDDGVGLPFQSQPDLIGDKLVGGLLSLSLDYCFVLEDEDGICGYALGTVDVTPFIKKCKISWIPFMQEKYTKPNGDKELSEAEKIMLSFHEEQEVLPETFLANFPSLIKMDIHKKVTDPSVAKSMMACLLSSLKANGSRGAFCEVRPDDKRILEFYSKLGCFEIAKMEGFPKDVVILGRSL

Experiments:
human O-GlcNAcase = human O-GlcNAcase (Homo sapiens (Human), UniProt O60502); experiment: Assay for determination of KI values for inhibition of O-GlcNAcase activity (fluorescence-based hOGA); format: biochemical; details: purified human O-GlcNAcase, 4-Methylumbelliferyl N-acetyl-β-D-glucosaminide substrate, pH 7.0, Cheng-Prusoff
Procedure: Experimental Procedure for Kinetic Analyses: Enzymatic reactions were carried out in a reaction containing 50 mM NaH2PO4, 100 mM NaCl and 0.1% BSA (pH 7.0) using 2 mM 4-Methylumbelliferyl N-acetyl-β-D-glucosaminide dihydrate (Sigma M2133) dissolved in ddH2O, as a substrate. The amount of purified human O-GlcNAcase enzyme used in the reaction was 0.7 nM. Test compound of varying concentrations was added to the enzyme prior to initiation of the reaction. The reaction was performed at room temperature in a 96-well plate and was initiated with the addition of substrate. The production of fluorescent product was measured every 60 sec for 45 min with a Tecan Infinite M200 plate-reader with excitation at 355 nm and emission detected at […], with 4-Methylumbelliferone (Sigma M1381) used to produce a standard curve. The slope of product production was determined for each concentration of compound tested and plotted, using standard curve fitting algorithms for sigmoidal dose response curves. The values for a four parameter logistic curve fit of the data were determined.

O-GlcNAcase = O-GlcNAcase (Rattus norvegicus (Rat), UniProt Q8VIJ5); experiment: Cell-based ELISA for cellular activity of O-GlcNAcase inhibitors (O-GlcNAcylated protein, RL-2 antibody); details: rat PC-12 cells, 24 h treatment, O-GlcNAcylated protein by RL-2 ELISA
Text: Inhibition of O-GlcNAcase, which removes O-GlcNAc from cellular proteins, results in an increase in the level of O-GlcNAcylated protein in cells. An increase in O-GlcNAcylated protein can be measured by an antibody, such as RL-2, that binds to O-GlcNAcylated protein. The amount of O-GlcNAcylated protein:RL2 antibody interaction can be measured by enzyme linked immunosorbant assay (ELISA) procedures.
A variety of tissue culture cell lines, expressing endogenous levels of O-GlcNAcase, can be utilized; examples include rat PC-12, and human U-87, or SK-N-SH cells. In this assay, rat PC-12 cells were plated in 96-well plates with approximately 10,000 cells/well. […] If desired, the total protein concentration of samples was determined using 20 μL of the sample using the BCA method.
The ELISA portion of the assay was performed in a black Maxisorp 96-well plate that was coated overnight at 4° C. with 100 μL/well of the cell lysate (1:10 dilution of the lysate with PBS containing protease inhibitors, phosphatase inhibitors, and PMSF). […] The detection reaction was incubated for 15 minutes at room temperature and then read with excitation at 530 nm and emission at 590 nm.
The amount of O-GlcNAcylated protein, as detected by the ELISA assay, was plotted for each concentration of test compound using standard curve fitting algorithms for sigmoidal dose response curves. […]

CNC1=N[C@@H]2[C@@H](O)[C@H](O)[C@@H](CF)C[C@@H]2O1 [Example 2, (3aR,4R,5R,6S,7aS)-6-(fluoromethyl)-2-(methylamino)-3a,4,5,6,7,7a-hexahydrobenzo[d]oxazole-4,5-diol]
Ki (human O-GlcNAcase): 3 nM
EC50 (O-GlcNAcase): 8.8 nM
